The target in one data set is hERG channel (Homo sapiens, UniProt Q12809).
The target in another data set is Human BOAT1 (Homo sapiens, UniProt Q695T7). The data set is described as follows: hBOAT1 inhibitory test (phenylalanine uptake). The note with it: read-out: hB0AT1 IC50, Human BOAT1 stable expression CHO cells, phenylalanine 0.25 mM.
The mark [1] stands for this setting: [3H]-L-phenylalanine uptake, radioactivity after 100 to 200 min.

Chains of the proteins cited; added tags and fusions are not shown.
UniProt Q12809, whole entry: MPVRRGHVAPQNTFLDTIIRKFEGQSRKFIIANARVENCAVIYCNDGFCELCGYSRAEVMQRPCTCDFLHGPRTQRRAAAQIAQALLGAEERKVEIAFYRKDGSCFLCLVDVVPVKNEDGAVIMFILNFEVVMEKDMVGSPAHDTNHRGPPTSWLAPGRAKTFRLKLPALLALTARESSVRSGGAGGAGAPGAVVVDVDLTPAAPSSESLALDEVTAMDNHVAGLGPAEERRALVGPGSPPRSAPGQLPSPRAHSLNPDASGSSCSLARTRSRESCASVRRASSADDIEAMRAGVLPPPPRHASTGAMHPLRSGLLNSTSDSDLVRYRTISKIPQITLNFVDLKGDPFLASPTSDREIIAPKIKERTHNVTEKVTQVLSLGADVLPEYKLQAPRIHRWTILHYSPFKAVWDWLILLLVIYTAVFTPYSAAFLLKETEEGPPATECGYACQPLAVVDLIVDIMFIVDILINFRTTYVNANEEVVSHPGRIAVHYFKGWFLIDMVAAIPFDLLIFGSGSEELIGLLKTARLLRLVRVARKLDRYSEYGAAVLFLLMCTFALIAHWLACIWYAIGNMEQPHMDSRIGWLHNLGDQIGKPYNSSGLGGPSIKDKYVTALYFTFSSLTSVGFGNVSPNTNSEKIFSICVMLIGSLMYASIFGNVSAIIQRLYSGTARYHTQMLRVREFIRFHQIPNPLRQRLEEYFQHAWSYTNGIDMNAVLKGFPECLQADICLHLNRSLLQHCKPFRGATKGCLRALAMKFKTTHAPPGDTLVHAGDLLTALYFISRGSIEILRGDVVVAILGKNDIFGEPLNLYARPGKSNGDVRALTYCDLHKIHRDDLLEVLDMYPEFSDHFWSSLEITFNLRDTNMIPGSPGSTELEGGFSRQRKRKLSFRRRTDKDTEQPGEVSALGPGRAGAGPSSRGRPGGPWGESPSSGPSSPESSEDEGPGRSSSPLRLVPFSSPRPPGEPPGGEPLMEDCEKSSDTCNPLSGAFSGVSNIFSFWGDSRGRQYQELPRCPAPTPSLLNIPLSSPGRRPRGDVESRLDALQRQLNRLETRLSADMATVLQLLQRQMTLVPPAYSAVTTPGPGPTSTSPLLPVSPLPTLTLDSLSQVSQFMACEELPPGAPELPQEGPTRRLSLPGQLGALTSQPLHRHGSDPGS
UniProt Q695T7, whole entry: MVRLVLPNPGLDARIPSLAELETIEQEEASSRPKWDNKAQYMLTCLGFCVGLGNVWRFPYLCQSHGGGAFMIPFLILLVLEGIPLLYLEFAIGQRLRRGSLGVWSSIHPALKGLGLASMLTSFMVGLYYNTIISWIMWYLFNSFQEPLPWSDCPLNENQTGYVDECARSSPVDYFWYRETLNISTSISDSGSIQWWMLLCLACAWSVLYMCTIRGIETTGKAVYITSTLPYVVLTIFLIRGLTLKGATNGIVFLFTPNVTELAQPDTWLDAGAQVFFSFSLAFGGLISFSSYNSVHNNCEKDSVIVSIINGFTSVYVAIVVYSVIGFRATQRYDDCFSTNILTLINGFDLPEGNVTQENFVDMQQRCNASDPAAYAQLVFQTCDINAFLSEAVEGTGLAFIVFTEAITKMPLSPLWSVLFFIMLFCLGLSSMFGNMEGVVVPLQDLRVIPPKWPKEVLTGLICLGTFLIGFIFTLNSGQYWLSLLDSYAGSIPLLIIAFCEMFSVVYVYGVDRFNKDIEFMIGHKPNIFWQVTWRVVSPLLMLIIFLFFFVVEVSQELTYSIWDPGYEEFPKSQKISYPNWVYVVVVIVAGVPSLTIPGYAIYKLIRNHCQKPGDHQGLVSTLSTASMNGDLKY

Read-outs that look alike come from different tables or passages of the source.

Regarding `O=C(O)Cc1cc(F)c2c(c1)CCN(C(=O)CNC(=O)/C=C/c1ccc(S(F)(F)(F)(F)F)cc1F)C2`, the results for the half-inhibitory concentration (IC50) at hERG channel and on Human BOAT1 (setting [1]) were more than 30000 nM and 59 nM, respectively.

Regarding `O=C(O)CNc1ccc2c(c1)CCN(C(=O)CNC(=O)/C=C/c1ccc(C(F)(F)F)cc1)C2`, the IC50 – broadly, the point on the concentration scale where inhibition reaches its midpoint – at Human BOAT1 (setting [1]) came to 71 nM.

On to `CC(C)(C)OC(=O)CCc1cc2n(n1)CCN(C(=O)CNC(=O)/C=C/c1ccc(C(F)(F)F)cc1)C2`, for which, at Human BOAT1 (setting [1]), the half-inhibitory concentration (IC50) was 134 nM.

For the compound `O=C(O)Cc1cc(F)c2c(c1)CCN(C(=O)CNC(=O)/C=C/c1ccc(S(F)(F)(F)(F)F)cc1)C2`, the results for the concentration for half-maximal inhibition (IC50) against hERG channel and at Human BOAT1 (setting [1]) were more than 30000 nM and 70 nM, respectively.

With `C[C@@H]1CN(C(=O)CNC(=O)/C=C/c2ccc(C(F)(F)F)cc2F)[C@@H](c2ccc(Cl)cc2)CN1CCC(=O)O`, the half-maximal inhibitory concentration (IC50) is more than 30000 nM on hERG channel and 33 nM on Human BOAT1 (phenylalanine uptake).

These data come from patent US20260001849A1, “NOVEL B0AT1 INHIBITOR” (MITSUBISHI TANABE PHARMA CORPORATION, priority 2023, published 2026).
